Earlier results in article PMC10088252.

System: NSCLC with MET exon 14 skipping mutation
Design: method as in PMID 32469185
Details: cited from earlier work
[1] = NSCLC patients with MET exon 14 skipping mutation

## CN1CCC(COc2cnc(-c3cccc(Cn4nc(-c5cccc(C#N)c5)ccc4=O)c3)nc2)CC1 [tepotinib]
11 patients with MET exon 14 skipping mutation and brain metastases
  ORR: 55%
[1]
  ORR: 46%
  median duration of response (DoR): 11.1 months
  grade ≥ 3 TEAE peripheral edema: 7%
  grade ≥ 3 TEAEs, patients: 28%
  patients who discontinued treatment due to TRAEs: 11%
Investigator assessed, previously treated or untreated
  ORR: 56%

Like-named read-outs stand apart in the source and are kept apart here.
